Only some compounds are listed: those with a hit (about 1% of all), similar ones and a draw of the others.
Rtt109 Vps75 = blocks Candida albicans Rtt109/Vps75 acetyltransferase activity | Q5AAJ8 | purified Rtt109/Vps75, ThioGlo CoA-SH fluorescence, 4 h | inhibition, % at 34.9 µM | 330,000 tested, 0.16% active;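 active means inhibition of at least 50% in every replicate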
CDK5 inh = CDK5/p35 (human) kinase inhibition; Q00535+Q15078; Recombinant CDK5/p35, ADP-Glo luminescence, 60 min; inhibition, % at 10 µM; 330,000 tested, 0.01% active; AID 488839;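 active means highest replicate inhibition of at least 50% and at least 75% of replicates reaching 50%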
Cneo AK release = causes C. neoformans cell lysis | lysis activity, % at 15 µM | 360,000 tested, 0.2% active | adenylate kinase release luminescence, 4 h; normalised: neutral wells 0, clomiphene wells 100;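 active means mean lysis activity across replicates of at least 80%, whatever share of replicates individually reach that level; inactive means mean lysis activity below 80%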
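Assay system: log-phase C. neoformans yeast / Quantity: yeast cell density of 5 × 10^6 cells/mL / Medium: fresh YPD growth medium / Compound: single dose / Timing: static 4 h at 37 °C with compound, 1 h detection / Measured by: adenylate kinase release luminescence / Read-out: lysis from increased AK signal / Benchmarks: Clomiphene as positive lysis control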
Statin myotox sup = protects C2C12 myotubes from simvastatin toxicity; AID 602340; rescue of ATP level, % at 7.49 µM; ATP luminescence, 48 h; scaled: DMSO 0, geranylgeraniol control 100; 330,000 tested, 0.78% active;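 active means mean ATP rescue above about 67%, or every replicate alone reaching that limit, limit read from the data, passing the limit was not always enough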;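 further: myotubes were challenged with 10 µM simvastatin during compound exposure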
Yeast UUG start = modulators of yeast start codon fidelity, primary screen, whole organism, S. cerevisiae, single point, plate reader | AID 602363, 2012 | actives 0.13% (n = 350,000) | activity score, % at 18.7 µM | S. cerevisiae UUG-firefly luciferase reporter, luminescence/redox ratio;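 active means replicate mean at a twofold rise or more, about +100% in these data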;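 further: firefly luciferase made from a UUG start codon reports start codon fidelity; reporter light over untreated wells divided by growth signal over untreated wells; some hits fall short of that in this replicate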
A number is an active result; n = inactive; x = no result; + = active, no number.

SMILES	Rtt109 Vps75	CDK5 inh	Cneo AK release	Statin myotox sup	Yeast UUG start
O=C(OCCCOC(=O)c1ccc([N+](=O)[O-])o1)c1ccc([N+](=O)[O-])o1	n	n	n	n	n
CC1=C(C(=O)OCc2ccccc2)C(c2ccccc2)NC(=O)N1 (configuration not stated)	n	n	80	n	n
COCC#Cc1ccc2c(c1)O[C@@H](CN(C)C(=O)C1CCC1)[C@H](C)CN([C@@H](C)CO)S2(=O)=O	x	x	n	n	n
O=C([C@@H]1[C@@H](CO)[C@@H]2Cn3c(cccc3=O)[C@@H]2N1CCC(F)(F)F)N1CCCCC1	x	x	102	n	x
COc1ccc(NC(=O)Nc2cccc3c2O[C@@H](CN(C)S(=O)(=O)c2ccc(Cl)cc2)[C@H](C)CN([C@@H](C)CO)C3=O)cc1	x	x	n	n	n
O=S(=O)(Nc1ccc(O)c(Sc2nc3ccccc3s2)c1)c1cccc2ccccc12	58	n	x	x	x
O=S(=O)(Nc1ccc(O)c(Sc2nc3ccccc3s2)c1)c1ccc(F)cc1	n	n	x	x	x
COc1cccc(C(=O)Nc2ccc3c(c2)C(=O)c2ccccc2C3=O)c1	50	n	x	x	x
Cc1noc(C)c1S(=O)(=O)N(C)C[C@@H]1OCCCC[C@H](C)Oc2ccc(NC(=O)c3ccccc3)cc2C(=O)N([C@@H](C)CO)C[C@H]1C	x	x	n	x	n
Cc1ccc(S(=O)(=O)CCC(=O)c2cccc([N+](=O)[O-])c2)cc1	+	n	n	n	n
CO[C@H]1CN(C)C(=O)c2ccc(NC(C)=O)cc2OC[C@H](C)N(Cc2cc(F)ccc2F)C[C@H]1C	x	x	n	n	n
CCCC(=O)Oc1c(S(=O)(=O)c2ccc(C)cc2)c(C)nn1C(C)(C)C	n	n	n	x	n
CCC(=O)Oc1c(S(=O)(=O)c2ccc(C)cc2)c(C)nn1C(C)(C)C	n	n	n	106	n
C[C@H](NC(=O)C[C@@H]1CC[C@@H](NC(=O)C2CCC2)[C@@H](CO)O1)c1ccccc1	x	x	n	n	n
O=C(Nc1nnc(-c2cccs2)o1)c1ccco1	n	n	n	69	n
Nc1nnnn1/N=C/c1ccccn1	n	n	n	83	n
Cc1noc(C)c1NC(=O)N[C@H]1CC[C@H](CC(=O)NCCCN(C)C)O[C@@H]1CO	x	x	n	n	n
Cc1cc(C)nc(NC(=NCCc2c[nH]c3ccccc23)NC(=O)c2ccco2)n1	n	n	x	128	x
Cc1cc(C)nc(NC(=NCCc2c[nH]c3ccccc23)NC(=O)Nc2ccccc2)n1	n	n	n	n	n
O=C(NC(Cc1c[nH]c2ccccc12)C(=O)O)c1ccco1 (configuration not stated)	n	n	n	84	n
C[C@@H]1CN([C@@H](C)CO)C(=O)c2cc(-c3ccccc3)cnc2O[C@H]1CN(C)C(=O)C1CCCCC1	x	x	n	n	n
COCCn1c(N)c(C(=O)Nc2sc3c(c2C(=O)OC)CCCC3)c2nc3ccccc3nc21	n	n	n	99	n
C=CCOC(=O)C1=C(C)NC(=O)NC1C1CC=CCC1 (configuration not stated)	n	n	x	117	x
COCCOC(=O)C1=C(C)NC(=O)NC1C1CC=CCC1 (configuration not stated)	n	n	n	n	n
Cc1ccc(/C=C/C(=O)Nc2ccc(S(N)(=O)=O)cc2)o1	n	n	x	x	x
SMILES	Rtt109 Vps75	CDK5 inh	Cneo AK release	Statin myotox sup	Yeast UUG start
Cc1ccc(/C=C/C(=O)NCc2ccc(S(N)(=O)=O)cc2)o1	72	n	x	x	x
Cn1c(=O)c2c(nc(NC3CCCCC3)n2Cc2ccccc2)n(C)c1=O	n	n	n	n	n
Cn1c(=O)c2c(nc(NC3CCCCC3)n2CC(=O)C23CC4CC(CC(C4)C2)C3)n(C)c1=O	57	n	n	n	n
CN1C(=O)c2cc(NC(=O)C3CCCC3)ccc2OC[C@H]2O[C@@H](CC(=O)NCC(F)(F)F)CC[C@H]21	x	x	n	n	n
Cc1cccc(C(=O)NC(=S)Nc2ccccc2C(F)(F)F)c1	n	n	x	x	x
Cc1ccc(C(=O)NC(=S)Nc2ccccc2C(F)(F)F)cc1C	n	n	n	93	n
COCCNC(=O)C(c1ccc(F)cc1)N(Cc1ccccc1)C(=O)CCC(=O)Nc1ccccn1 (configuration not stated)	n	n	n	n	n
COCCNC(=O)C(c1ccc(O)cc1)N(Cc1ccccc1)C(=O)CCC(=O)Nc1ccccn1 (configuration not stated)	58	n	n	n	n
O=C(CSc1nc2ccccc2c(=O)n1CC1CCCO1)Nc1ccccc1 (configuration not stated)	n	n	n	n	n
O=C(CSc1nc2ccccc2c(=O)n1CC1CCCO1)Nc1ccccc1Cl (configuration not stated)	n	n	n	79	n
Cn1cc(C(=O)Nc2ccc(F)c(F)c2)cn1	n	n	n	90	n
COC(=O)c1cccc(-n2sc3ccccc3c2=O)c1	130	n	n	n	n
Cn1c(C(=O)N2CCCC(C(=O)N3CCN(C(=O)c4ccco4)CC3)C2)cc2sccc21 (configuration not stated)	n	n	n	n	n
Cn1c(C(=O)N2CCCC(C(=O)O)C2)cc2sccc21 (configuration not stated)	n	n	n	96	n
Cc1noc(C)c1NC(=O)N(C)C[C@@H]1Oc2ncc(C3=CCCCC3)cc2C(=O)N([C@@H](C)CO)C[C@@H]1C	x	x	x	n	x
O=CNc1cc(-c2ccsc2)cn2c(-c3ccccc3)cnc12	x	x	146	n	n
CCS(=O)(=O)N1CCN(c2ccc([N+](=O)[O-])c(NCc3ccccc3)c2)CC1	n	n	n	n	240
CO[C@H]1CN(C)C(=O)c2ccc(NC(=O)C3CCOCC3)cc2OC[C@@H](C)N(CC2CC2)C[C@H]1C	x	x	n	n	n
CC(=O)N1CCN(C(=O)c2ccc(Oc3ccccc3)cc2)CC1	n	n	n	n	n
O=C(c1ccccc1)N1CCN(C(=O)c2ccc(OC(F)(F)F)cc2)CC1	n	n	n	98	n
O=[N+]([O-])c1cc(S(=O)(=O)C(F)(F)F)ccc1Sc1nc2ccccc2s1	n	n	n	86	n
CS(=O)(=O)c1ccc(Sc2nc3ccccc3s2)c([N+](=O)[O-])c1	n	n	n	x	n
O=C(O)/C=C\C(=O)Nc1ccccc1C(=O)N1CCN(c2ccc(Cl)cc2)CC1	n	n	n	88	n
Cc1cc(Cl)ccc1OCC(=O)Nc1ccccc1C(=O)N1CCOCC1	n	n	n	n	n
COc1cc(Cl)ccc1NC(=O)COc1ccccc1C(=O)N1CCN(c2ccc(O)cc2)CC1	n	n	n	122	n
O=C(O)c1ccccc1C(=O)N1CCN(c2cccc(Cl)c2)CC1	n	n	n	84	n
CCOc1ccc(S(=O)(=O)NCC(=O)N(C)Cc2cccnc2)cc1	n	n	n	109	n
Cc1ccc(S(=O)(=O)Nc2ccc3c(c2)CC(=O)N([C@H](C)CO)C[C@H](C)[C@@H](CN(C)Cc2ccc(C(F)(F)F)cc2)O3)cc1	x	x	x	115	x

From PubChem
